From PubChem
An excerpt weighted towards active compounds, which were near 0.43% of everything screened.
GIV-Gai inh = inhibitors of GIV peptide binding to Galpha-i3, primary screen, biochemical, fluorescence polarization, FITC-GIV GBA peptide, rat Galphai3; Guanine nucleotide-binding protein G(i) subunit alpha-3 (Rattus norvegicus), P08753; 90 min; stronger effect = lower value; scaled: aluminum fluoride 0%, vehicle 100%; percent of control (FP), % (no concentration beside the values); 210,000 tested, 0.42% active;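 active = replicate mean at 85% of control or lower, very high polarization wells dropped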;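 note: wells of about 15 µL received 100 nL stock; the first replicate is given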
HCMV NEC inh = inhibitors of HCMV UL50-UL53 nuclear egress complex interaction; HTRF UL50-UL53 interaction, normalized percent inhibition; inhibition, % (test concentration not listed); actives 0.15% (n = 190,000); in the data active means inhibition above about 27%, passing the limit was not always enough
GIV-Gai FP conf = confirmation of inhibitors of GIV binding to rat Galpha-i3 | shares compounds with GIV-Gai inh | FITC-GIV peptide binding to Galphai3, fluorescence polarization; stronger effect = lower value | fluorescence polarization, mP at 100 µM | actives 38% (n = 580) | AID 1259350;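 active means inhibition score of 15 or more, meaning 100 minus mean polarization as percent of control over three replicates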
GIV Gai AS conf = GIV-Galpha-i3 inhibition, AlphaScreen confirmation | shares compounds with GIV-Gai inh | AlphaScreen Galphai3-GIV binding, purified proteins, 90 min; stronger effect = lower value | AlphaScreen counts at 100 µM | actives 39% (n = 580) | AID 1259351;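 active means inhibition score at or above a set limit, where the score is 100 minus the three-replicate mean percent of control signal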
The depositor's hits bear a star.

Protein sequences, listed by entry. Tags and fused reporters are not part of them.
Guanine nucleotide-binding protein G(i) subunit alpha-3 (Rattus norvegicus), P08753, UniProt P08753, whole entry, looked up: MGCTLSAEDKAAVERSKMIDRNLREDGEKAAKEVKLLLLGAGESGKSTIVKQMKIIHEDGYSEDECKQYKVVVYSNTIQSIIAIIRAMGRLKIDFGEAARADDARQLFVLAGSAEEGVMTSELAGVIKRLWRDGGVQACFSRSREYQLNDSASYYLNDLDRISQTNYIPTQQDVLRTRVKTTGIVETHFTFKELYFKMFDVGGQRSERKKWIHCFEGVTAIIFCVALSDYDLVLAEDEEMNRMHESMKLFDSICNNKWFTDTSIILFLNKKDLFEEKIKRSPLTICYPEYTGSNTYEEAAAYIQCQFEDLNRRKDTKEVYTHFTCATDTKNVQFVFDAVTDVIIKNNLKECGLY

COc1cc(C2Nc3ccccc3-c3nnc(SC)nc3O2)cc(Br)c1O (stereo not drawn) was read as GIV-Gai inh 105.2 and HCMV NEC inh -50.9.
For CN1/C(=C2/SC(=S)NC2=O)Sc2ccccc21 the results were GIV-Gai inh 116.9.
Screening CCN1/C(=C2\C(=O)N(C)C(=S)N2c2ccccc2)C=Cc2cc(C)ccc21 returned GIV-Gai inh 108.8 and HCMV NEC inh -104.6.
O=C1NC2(O)C(=O)c3ccccc3C2(O)N1 (stereo not drawn) was read as GIV-Gai inh 112.5.
NC1=NC2(O)c3ccccc3C(=O)C2(O)NN1 (stereo not drawn) was read as GIV-Gai inh 76.4*, GIV-Gai FP conf 53.6* and GIV Gai AS conf 44135.
Screening CCOC(=O)c1[nH]c(C)c(S(=O)(=O)N2c3ccccc3CC2C)c1C (stereo not drawn) returned GIV-Gai inh 109.6 and HCMV NEC inh 17.5.
For CCOC(=O)c1cc(C)[nH]n1 the results were GIV-Gai inh 106.5 and HCMV NEC inh -19.4.
For COc1cc2c(cc1OC)CN(CCC(=O)O)CC2 the results were GIV-Gai inh 91.7, GIV-Gai FP conf 66.6 and GIV Gai AS conf 39813.
Screening COc1cc2c(cc1OC)CN(CC(N)=O)CC2 returned HCMV NEC inh -7.3.
For O=c1c2cc(-c3cccs3)nn2ccn1Cc1noc(CN2CCCCCCC2)n1 the results were GIV-Gai inh 101.6.
Screening COCc1cc(C)nc2sc3c(=O)n(-c4cccc(OC)c4)nnc3c12 returned GIV-Gai inh 110.4 and HCMV NEC inh -9.1.
CC(=O)N(c1ccccc1)C1SC(=O)N(c2ccc(C)cc2)C1=O (stereo not drawn) was read as HCMV NEC inh -2.5.
Screening C[C@H](O)C(=O)C1=Nc2c(nc(N)[nH]c2=O)NC1 returned GIV-Gai inh 72.8*, HCMV NEC inh -88.1, GIV-Gai FP conf 71.7 and GIV Gai AS conf 29102*.
CC(O)C(O)[C@H]1CNc2nc(N)[nH]c(=O)c2N1 (stereo partly drawn) was read as GIV-Gai inh 103.4 and HCMV NEC inh -53.0.
`Cc1cc(-c2ccccc2)n2nc(-c3ccc(Cl)cc3)cc2n1` gave GIV-Gai inh 50.6*, GIV-Gai FP conf 85.2 and GIV Gai AS conf 33087.

Compounds from the list above that have a halogen (two):
COc1cc(C2Nc3ccccc3-c3nnc(SC)nc3O2)cc(Br)c1O (stereo not drawn) was read as GIV-Gai inh 105.2 and HCMV NEC inh -50.9.
`Cc1cc(-c2ccccc2)n2nc(-c3ccc(Cl)cc3)cc2n1` gave GIV-Gai inh 50.6*, GIV-Gai FP conf 85.2 and GIV Gai AS conf 33087.

Later entries:
Screening Cc1cc(C(F)(F)F)n2nc(-c3ccccc3)cc2n1 returned GIV-Gai inh 115.0 and HCMV NEC inh -23.1.
N#Cc1cccc(C(=O)Nc2ccccc2)c1 was read as HCMV NEC inh -7.7.
For Cc1ccc(C)c(Nc2nc3nonc3nc2Nc2cc(C)ccc2C)c1 the results were GIV-Gai inh 111.7.
Screening Cc1ccc(-n2c3nc(=O)[nH]c(=O)c-3cc3ccccc32)cc1Cl returned GIV-Gai inh 104.6.
For COc1ccc(-n2c3nc(=O)[nH]c(=O)c-3cc3ccccc32)cc1 the results were GIV-Gai inh 71.1*, GIV-Gai FP conf 64.5 and GIV Gai AS conf 8986*.
For O=C(CSC1=NS(=O)(=O)c2ccccc21)Nc1ccccc1 the results were GIV-Gai inh 66.1*, HCMV NEC inh -16.7, GIV-Gai FP conf 59.2 and GIV Gai AS conf 10980*.
For COc1ccc(CCNC(=O)CSC2=NS(=O)(=O)c3ccccc32)cc1OC the results were GIV-Gai inh 97.0 and HCMV NEC inh -16.3.
Screening COC(=O)c1ccc(-c2ncc(-c3ccc(N(C)C)cc3)o2)cc1 returned GIV-Gai inh 86.5, HCMV NEC inh 6.2, GIV-Gai FP conf 71.1 and GIV Gai AS conf 48206.
COC(=O)c1ccc(-c2nnc(-c3ccc(N(C)C)cc3)o2)cc1 was read as HCMV NEC inh -28.8.
Screening CC1(C(=Nc2ccc(Cl)cc2)C(=O)Nc2ccc(Cl)cc2)OC(=O)C[n+]2ccccc21 (stereo not drawn) returned GIV-Gai inh 112.4.
CCN(CC)S(=O)(=O)c1ccc2c(c1)nc(CCC(=O)OCCOc1ccc(C)cc1)n2C was read as HCMV NEC inh -12.0.
`Cc1cc2c3c(c(Br)cc(S(=O)(=O)O)c3n1)C(=O)c1ccccc1-2` gave GIV-Gai inh 82.6*, GIV-Gai FP conf 25.4* and GIV Gai AS conf 2617*.
Cc1cc2c3c(c(N)cc(S(=O)(=O)O)c3n1)C(=O)c1ccccc1-2 was read as GIV-Gai inh 126.5.
For O=C(O)c1cc(O)[nH]c(=O)c1 the results were GIV-Gai inh 78.3*, HCMV NEC inh 82.7*, GIV-Gai FP conf 42.1* and GIV Gai AS conf 10996*.
O=C(O)c1cc(O)c(O)c(O)c1 was read as HCMV NEC inh -19.9.

Quoted from the listing for reference:
For O=C(O)c1cc(O)[nH]c(=O)c1 the results were GIV-Gai inh 78.3*, HCMV NEC inh 82.7*, GIV-Gai FP conf 42.1* and GIV Gai AS conf 10996*.
O=C(O)c1cc(O)c(O)c(O)c1 was read as HCMV NEC inh -19.9.

(further entries)
For O=S(=O)(Nc1ccc(-c2nnc3n2CCCCC3)cc1)c1ccc(Br)cc1 the results were HCMV NEC inh -9.1.
For CN1C(=O)Cc2ccccc2C1=O the results were GIV-Gai inh 79.6*, HCMV NEC inh 66.6*, GIV-Gai FP conf 59.1* and GIV Gai AS conf 17985*.
`CN1C(=O)Cc2ccccc21` gave GIV-Gai inh 101.3 and HCMV NEC inh -2.8.
O=C1CCCC(O)=C1C1=NC2(CCCCCC2)Cc2ccccc21 was read as GIV-Gai inh 102.9.
Screening O=C1CCCC(O)=C1C1(O)C(=O)c2ccccc2C1=O returned GIV-Gai inh 62.1*, HCMV NEC inh 74.4*, GIV-Gai FP conf 56* and GIV Gai AS conf 55998.
For CCc1cc(C(Nc2cccc(C)n2)c2ccc3c(c2)OCO3)c(NC(=O)c2ccccc2)s1 (stereo not drawn) the results were GIV-Gai inh 102.8 and HCMV NEC inh -15.4.
For Cn1c(=O)cc(N2CCCCC2)[nH]c1=O the results were GIV-Gai inh 107.2 and HCMV NEC inh -15.6.
`CN(N)c1cc(=O)n(C)c(=O)[nH]1` gave GIV-Gai inh 63.6*, HCMV NEC inh -48.8, GIV-Gai FP conf 49* and GIV Gai AS conf 32708.
`Cc1nn(-c2ccccc2)c2c1N(CCCC(=O)NCc1ccccn1)C(=O)CS2` gave GIV-Gai inh 105.3 and HCMV NEC inh -23.8.
Screening CCCCCN1C(C(=O)c2ccccc2)=C(NC(=O)c2ccc(C)cc2)c2ccccc2S1(=O)=O returned GIV-Gai inh 106.2 and HCMV NEC inh -7.3.
For CCN1C(C(=O)c2ccccc2)=C(NC(=O)c2ccccc2)c2ccccc2S1(=O)=O the results were GIV-Gai inh 54.7*, HCMV NEC inh -4.3, GIV-Gai FP conf 20.4* and GIV Gai AS conf 46797.
`Cc1cc(C)c(C)c(Cn2c(-c3ccco3)nc3ccccc32)c1C` gave GIV-Gai inh 113.8 and HCMV NEC inh 5.2.
CCN1CCN(c2ccc(N=Cc3cc(I)ccc3O)cc2)CC1 was read as GIV-Gai inh 28.1*, HCMV NEC inh -29.2, GIV-Gai FP conf 80.8 and GIV Gai AS conf 28751.
Oc1ccc(C=Nc2ccc(N3CCOCC3)cc2)cc1O was read as HCMV NEC inh -29.3.
`CC(C)NC(=O)C1CCCCC1C(=O)O` (stereo not drawn) gave GIV-Gai inh 95.7 and HCMV NEC inh -9.5.
Screening CCCc1c(C)nc2ncnn2c1Sc1ccc(N(C)C)cc1 returned GIV-Gai inh 101.3.
For Oc1ccccc1C(Nc1ccccn1)c1ccc2cccnc2c1O (stereo not drawn) the results were HCMV NEC inh -61.8.
